Results from patent publication US11366102B2, “Spectographic metabolite-signature for identifying a subject's susceptibility to drugs” (Olaris, Inc., priority 2018, dated 2022).

Key:
[1] = tested on: HER2+ metastatic breast cancer; test: Progression free survival of HER2+ mBC patients treated with trastuzumab and chemotherapy; type: in vivo, human
[2] = tested on: HER2+ metastatic breast cancer; conditions: after about 1 year of PFS; cited from earlier work

## Trastuzumab
[1]; 23 HER2+ mBC patients treated with trastuzumab and chemotherapy
  Median PFS: 301 days
[1]; PFS<301 days, all 23 patients
  Number of Non-responders (NR), early progressors: 13
[1]; PFS≥301 days, all 23 patients
  Number of Responders (R), late progressors: 10
[1]; sixteen patients who received trastuzumab as part of first line therapy
  Number of R patients, first line therapy: 7 patients
[2]
  Patients who stop responding to therapy: approximately 75%
